{"source": "patent US6500222B2", "about": "“Diureides and their use” (priority 1999, dated 2002)", "tested_on": "ryegrass", "test": "Crop production experiment in Mitscherlich containers with ryegrass as test crop", "conditions": "for Dry-matter production / Nitrogen uptake: 2.4 g of N per container", "note": "Some compounds may have been tested in ways that are not shown here."}
{"substance": "ammonium nitrate", "values": [{"measurement": "Remarks (plant damage)", "setting": "2.4 g of N per container (770 kg of N/ha), plants assessed prior to each cut", "result": "plant damage was provoked"}, {"measurement": "Dry-matter production", "setting": "day 16 post-fertilization", "result": 8.7, "unit": "g/container"}, {"measurement": "Nitrogen uptake", "setting": "day 16 post-fertilization", "result": 508, "unit": "mg/container"}, {"measurement": "Dry-matter production", "setting": "day 30 post-fertilization", "result": 8.5, "unit": "g/container"}, {"measurement": "Nitrogen uptake", "setting": "day 30 post-fertilization", "result": 443, "unit": "mg/container"}, {"measurement": "Dry-matter production", "setting": "day 45 post-fertilization", "result": 11, "unit": "g/container"}, {"measurement": "Nitrogen uptake", "setting": "day 45 post-fertilization", "result": 523, "unit": "mg/container"}, {"measurement": "Dry-matter production", "setting": "day 58 post-fertilization", "result": 9.1, "unit": "g/container"}, {"measurement": "Nitrogen uptake", "setting": "day 58 post-fertilization", "result": 435, "unit": "mg/container"}, {"measurement": "Dry-matter production", "setting": "day 78 post-fertilization", "result": 7.9, "unit": "g/container"}, {"measurement": "Nitrogen uptake", "setting": "day 78 post-fertilization", "result": 194, "unit": "mg/container"}, {"measurement": "Dry-matter production", "setting": "day 100 post-fertilization", "result": 2.7, "unit": "g/container"}, {"measurement": "Nitrogen uptake", "setting": "day 100 post-fertilization", "result": 57, "unit": "mg/container"}, {"measurement": "Dry-matter production", "setting": "day 125 post-fertilization", "result": 1.8, "unit": "g/container"}, {"measurement": "Nitrogen uptake", "setting": "day 125 post-fertilization", "result": 43, "unit": "mg/container"}, {"measurement": "Dry-matter production", "setting": "day 154 post-fertilization", "result": 1, "unit": "g/container"}, {"measurement": "Nitrogen uptake", "setting": "day 154 post-fertilization", "result": 21, "unit": "mg/container"}, {"measurement": "Dry-matter production", "setting": "day 174 post-fertilization", "result": 0.3, "unit": "g/container"}, {"measurement": "Nitrogen uptake", "setting": "day 174 post-fertilization", "result": 6, "unit": "mg/container"}]}
